{
  "source": "ChEMBL document CHEMBL1154314",
  "about": "“Synthesis and antitumor activities of 3-modified 2-methoxyestradiol analogs” (Bioorg Med Chem Lett, 2009)",
  "system": "MCF7",
  "assay": "Estrogenic activity in human MCF7 cells assessed as stimulation of cell proliferation relative to 2ME2",
  "type": "functional",
  "note": "Calls of active or inactive are those of the source. The calls are words filed in the database; no cut-off is given here.",
  "data": [
    {"smiles": "COc1cc2c(cc1C(=O)O)CC[C@@H]1[C@@H]2CC[C@]2(C)[C@@H](O)CC[C@@H]12", "values": [
      {"measurement": "fold change (FC)", "result": "inactive"}
    ]}
  ]
}
